Test results as given in US20120053176A1, “ADENOSINE A3 RECEPTOR MODULATING COMPOUNDS AND METHODS OF USE THEREOF” (AMBIT BIOSCIENCES CORP., priority 2010, published 2012).

Amino acid sequences for entries named in this document (tags omitted).
UniProt P0DMS8, whole entry: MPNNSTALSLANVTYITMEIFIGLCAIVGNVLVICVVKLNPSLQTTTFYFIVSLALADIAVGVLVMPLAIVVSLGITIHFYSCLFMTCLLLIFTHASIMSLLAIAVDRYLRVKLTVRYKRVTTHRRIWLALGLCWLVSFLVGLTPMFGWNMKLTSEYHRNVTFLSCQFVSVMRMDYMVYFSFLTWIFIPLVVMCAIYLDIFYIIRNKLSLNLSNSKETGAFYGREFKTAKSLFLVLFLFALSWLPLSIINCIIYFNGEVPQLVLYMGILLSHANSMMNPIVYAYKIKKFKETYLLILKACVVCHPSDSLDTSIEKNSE

Tests used:
human ADORA3 [1] = molecular target: T1, human ADORA3 (Homo sapiens, UniProt P0DMS8); experiment: PathHunter β-Arrestin assay, antagonist mode; type: cell-based; conditions: human ADORA3-expressing PathHunter cell line, C1-MB-NECA agonist challenge at EC80
T1 construct: expressed in transfected cells

human ADORA3 [2] = molecular target: T1, human ADORA3; experiment: PathHunter cAMP Hunter assay, antagonist mode; type: cell-based; conditions: Gi antagonist mode; human ADORA3-expressing cAMP Hunter cell line; forskolin and C1-MB-NECA challenge at EC80
[3] = molecular target: T2, human adenosine A3 receptor (Homo sapiens, UniProt P0DMS8); experiment: adenosine A3 receptor GTPγS binding assay in antagonist format; type: biochemical; conditions: [35S]GTPγS bound relative to 2-C1-IB-MECA response; human CHO-K1 cells expressing human adenosine A3 receptor; 30° C., 30 min; read-out: IC50 against adenosine A3
T2 construct: expressed in transfected cells; host or cells: CHO-K1 cells

## Cc1cc(Nc2nc(C(O)c3ccc(F)cc3)nc3ccccc23)n[nH]1 (racemic) [Example 12, (R,S)-(4-fluorophenyl)(4-(5-methyl-1H-pyrazol-3-ylamino)quinazolin-2-yl)methanol hydrochloride]
Human ADORA3 [1]
  EC50: 0.0276 µM
Human ADORA3 [2]
  EC50: 0.0065 µM
[3]
  IC50: 0.0629 µM

Where a name gives a salt, the structure may show the parent alone.
